# According to PubChem BioAssay AID624202 (National Center for Advancing Translational Sciences (NCATS), 2012):
# Only a part is listed here, and it is no random draw. The source made the active and inactive calls. The call rests on the fitted dose curve; in most records, active means well fitted activation curve with a large enough effect; inconclusive means small, poorly fitted or top-dose-only effect; inactive means no such curve, though single readings can be large or run the other way.
# Assay: qHTS Assay to Identify Small Molecule Activators of BRCA1 Expression; further: nearly all actives have a fitted effect of over 80% in size
# Details: MCF7-BRCA1-FFLuc reporter, luminescence, 48 h, scaled: vehicle 0%, 10 µM genistein 100%; at 46.1 µM (top of the series)
row,SMILES,activation
1,CN1CCCCC1COC(=O)C1(O)c2ccccc2CCc2ccccc21 (centres undefined),inactive: -27%
2,COc1ccccc1OP(C)(=O)Nc1c(C)cccc1C (centres undefined),inactive: -29.4%
3,CCCOc1ccc(NP(C)(=O)Oc2ccc(Cl)cc2)cc1 (centres undefined),inactive: -8.84%
4,CP(=O)(Nc1ccc(SC(F)(F)F)cc1)Oc1ccccc1 (centres undefined),inactive: -31.6%
5,CC1=C2N=C(C=C3N=C(C(C)=C4[N-][C@@](C)([C@@H]5N=C1[C@](C)(CCC(=O)NC[C@@H](C)OP(=O)([O-])O[C@H]1[C@@H](O)[C@@H](n6cnc7cc(C)c(C)cc76)O[C@@H]1CO)[C@H]5CC(N)=O)[C@@](C)(CC(N)=O)[C@@H]4CCC(N)=O)[C@@](C)(CC(N)=O)[C@@H]3CCC(N)=O)C(C)(C)[C@@H]2CCC(N)=O.[C-]#N.[Co+3],inactive: 5.6%
6,O=[N+]([O-])c1cc([N+](=O)[O-])c(Nc2nnnn2CCO)c([N+](=O)[O-])c1,inactive: -19.8%
7,O=[N+]([O-])c1cc([N+](=O)[O-])c(-c2cnn(-c3ccccc3)c2)c([N+](=O)[O-])c1,inactive: -31.9%
8,Cc1nc2ccc3ccccc3c2s1.O=[N+]([O-])c1cc([N+](=O)[O-])c(O)c([N+](=O)[O-])c1,inactive: 0%
9,O=[N+]([O-])c1cc([N+](=O)[O-])c(-n2nnc3ccccc32)c([N+](=O)[O-])c1,inactive: 19.5%
10,CN(Cc1cccnc1)C(=O)COc1ccc(Cl)c(Cl)c1.O=[N+]([O-])c1cc([N+](=O)[O-])c(O)c([N+](=O)[O-])c1,inactive: 11%
11,Cc1cc(C)cc(OP(C)(=O)Nc2ccccn2)c1 (centres undefined),inactive: 1.37%
12,CP(=O)(Nc1cccc(Br)c1)Oc1ccccc1 (centres undefined),inactive: -12.9%
13,Cc1ccc(C)c(NP(C)(=O)Oc2ccccc2)c1 (centres undefined),inactive: -3.23%
14,COc1ccccc1OP(C)(=O)Nc1cccc(Br)c1 (centres undefined),inactive: 13.1%
15,Cc1cc(C)cc(OP(C)(=O)Nc2ccc(C)cc2C)c1 (centres undefined),inactive: 9.25%
16,CCOC(=O)c1ccc(NP(C)(=O)Oc2cc(C)cc(C)c2)cc1 (centres undefined),inactive: -74.3%
17,CC1=NCCc2c1[nH]c1ccccc21.O=[N+]([O-])c1cc([N+](=O)[O-])c(O)c([N+](=O)[O-])c1,inactive: 2.93%
18,CCOC(=O)c1ccc(NP(C)(=O)Oc2ccccc2)cc1 (centres undefined),inactive: -15.7%
19,COc1ccccc1OP(C)(=O)Nc1ccc(C)cc1 (centres undefined),inactive: 0.227%
20,Cc1ccc(NP(C)(=O)Oc2ccccc2)c(C)c1 (centres undefined),inactive: -7.2%
21,COc1ccccc1OP(C)(=O)Nc1cc(Cl)ccc1C (centres undefined),inactive: -2.68%
22,COc1ccc(OP(C)(=O)Nc2cccc(F)c2)cc1 (centres undefined),inactive: -0.0093%
23,Cc1cc(C)cc(OP(C)(N)=O)c1 (centres undefined),inactive: -2.98%

row,SMILES,activation
1,O=[N+]([O-])c1cc([N+](=O)[O-])c(Nc2cccnc2)c([N+](=O)[O-])c1,inactive: -45.2%
2,CC(C)(C)c1ccc(OP(C)(=O)Nc2ccc(SC(F)(F)F)cc2)cc1 (centres undefined),inactive: -89.5%
3,Cc1cccc(C)c1OP(C)(N)=O (centres undefined),inactive: -7.46%
4,O=[N+]([O-])c1ccc2c(c1)C=Nc1ccccc1O2,inactive: -33.6%
5,COc1ccccc1-c1ccccn1.O=[N+]([O-])c1cc([N+](=O)[O-])c(O)c([N+](=O)[O-])c1,inactive: 20.8%
6,CCN(CC)CCCOC(=O)C(O)(c1ccccc1)c1ccccc1,inactive: -5.74%
7,CCOP(C)(=S)SCC(=O)NC(C)C(=O)O (centres undefined),inactive: 1.62%
8,O=[N+]([O-])c1cc([N+](=O)[O-])c(O)c([N+](=O)[O-])c1.c1ccc(Oc2ccncc2)cc1,inactive: 0%
9,CCOC(=O)c1ccc(NP(C)(=O)Oc2ccc(OC)cc2)cc1 (centres undefined),inactive: -15.9%
10,CP(=O)(Nc1ccccn1)Oc1ccc(Cl)cc1 (centres undefined),inactive: 0.645%
11,CP(=O)(Nc1ccc(SC(F)(F)F)cc1)Oc1ccc(Cl)cc1 (centres undefined),inactive: -35.6%
12,Cc1cccc(C)c1OP(C)(=O)Nc1ccc(SC(F)(F)F)cc1 (centres undefined),inactive: 1.64%
13,CP(=O)(Oc1ccccc1)OC(c1ccccc1)C(F)(F)F (centres undefined),inactive: -1.52%
14,CP(=O)(NC(=O)Nc1ccccc1)Oc1ccccc1 (centres undefined),inactive: 0.889%
15,CCc1ccc(OP(C)(=O)N2CCN(c3ccc([N+](=O)[O-])cc3)CC2)cc1 (centres undefined),inactive: -1.05%
16,Cc1cc(C)cc(OP(C)(=O)Nc2ccc(SC(F)(F)F)cc2)c1 (centres undefined),inactive: -32.8%
17,CP(=S)(Nn1cnnc1)Oc1ccccc1 (centres undefined),inactive: -1.59%
18,COc1ccccc1OP(C)(=O)Nc1ccccc1 (centres undefined),inactive: -0.323%
19,CP(=O)(Nc1ccccc1Br)Oc1ccccc1 (centres undefined),inactive: 1.66%
20,Nc1ccc2c(ccc3cccnc32)n1.O=[N+]([O-])c1cc([N+](=O)[O-])c(O)c([N+](=O)[O-])c1,inactive: 59.6%
21,CP(=O)(OC12CC3CC(CC(C3)C1)C2)OC12CC3CC(CC(C3)C1)C2,inactive: -20.9%
22,CCOC(=O)c1ccc(NP(C)(=O)Oc2ccc(Cl)cc2)cc1 (centres undefined),inactive: -14.4%
23,CP(=O)(Nc1ccc(Cl)cc1)Oc1ccc(F)cc1 (centres undefined),inactive: 22.1%

row,SMILES,activation
1,COc1ccccc1OP(C)(=O)Nc1ccccc1Br (centres undefined),inactive: -4.03%
2,CC(C)(C)c1ccc(OP(C)(=O)O)cc1,inactive: 7.21%
3,CN(C)C(=O)c1c([N+](=O)[O-])cc([N+](=O)[O-])cc1[N+](=O)[O-],inactive: -86.6%
4,CCN(CC)CC(O)COC(=O)C(O)(c1ccccc1)C1CCCCC1 (centres undefined),inactive: -0.163%
5,COc1ccc(OP(C)(=O)Nc2ccc(Br)cc2)cc1 (centres undefined),inactive: -14%
6,CP(=O)(Oc1ccccc1)N1CCOC1=O (centres undefined),inactive: -21.3%
7,CCc1ccc(OP(C)(=O)Nc2cccnc2)cc1 (centres undefined),inactive: -25.1%
8,COc1ccccc1OP(C)(=O)Nc1c(C)n(C)n(-c2ccccc2)c1=O (centres undefined),inactive: -14%
9,O=C(OCCCN1CCCC1)C(O)(c1ccccc1)C1CCCCC1 (centres undefined),inactive: -13.8%
10,Cc1c(NP(C)(=O)Oc2ccc(C(C)C)cc2)c(=O)n(-c2ccccc2)n1C (centres undefined),inactive: 1.01%
11,O=[N+]([O-])c1cc([N+](=O)[O-])c(Nc2ccccn2)c([N+](=O)[O-])c1,inactive: -90.7%
12,CCc1ccc(OP(C)(=O)O)cc1,inactive: -1.24%
13,CP(=O)(Nc1ccccn1)Oc1ccccc1 (centres undefined),inactive: 11.2%
14,COc1ccccc1OP(C)(=O)Nc1ccc(C)cc1C (centres undefined),inactive: 0%
15,COc1ccccc1OP(C)(=O)Nc1ccc(Br)cc1 (centres undefined),inactive: -9.94%
16,CN(C)CCOC(=O)C(O)(c1ccccc1)C1CCCC1 (centres undefined),inactive: -4.68%
17,COc1ccc(OP(C)(=O)Nc2ccccn2)cc1 (centres undefined),inactive: -6.77%
18,CP(=O)(Nc1ccc(Cl)cc1Cl)Oc1ccccc1 (centres undefined),inactive: 18.9%
19,CCCCCCCCCCCCCCCC1C[N+](C)(C)CCOP(C)(=O)O1 (centres undefined),inactive: -71.1%
20,CP(=O)(OCCOc1ccccc1)OCCOc1ccccc1,inactive: -13.1%
21,Cc1cc(C)cc(OP(C)(=O)Nc2cccc(C(F)(F)F)c2)c1 (centres undefined),inactive: -11.3%
22,COc1ccc(OP(C)(=O)Nc2ccccc2Br)cc1 (centres undefined),inactive: -8.35%
23,COc1ccccc1OP(C)(=O)Nc1ccc(C)c(C)c1 (centres undefined),inactive: -4.5%

row,SMILES,activation
1,CCN(CC)CCCOC(=O)C(O)(c1ccccc1)C1CCCCC1 (centres undefined),inactive: -0.0274%
2,Cc1c([N+](=O)[O-])cc([N+](=O)[O-])c(Br)c1[N+](=O)[O-],inactive: -6.14%
3,CCCCCOc1ccc(NP(C)(=O)Oc2ccc(Cl)cc2Cl)cc1 (centres undefined),inactive: -65.9%
4,CP(=O)(Nc1ccccc1)Oc1ccc(F)cc1 (centres undefined),inactive: 0.943%
5,COc1ccc(OP(C)(=O)Nc2ccc(SC(F)(F)F)cc2)cc1 (centres undefined),inactive: -26.4%
6,CCOC(=O)c1ccc(NP(C)(=O)Oc2ccc(F)cc2)cc1 (centres undefined),inactive: -0.983%
7,O=C(OCCN1CCN(CCOCc2ccccc2)CC1)C(O)(c1ccccc1)c1ccccc1,inactive: 17.2%
8,CC(C)c1ccc(OP(C)(=O)Nc2ccc(SC(F)(F)F)cc2)cc1 (centres undefined),inactive: -64.4%
9,CP(=O)(Nc1ccccc1F)Oc1ccccc1 (centres undefined),inactive: 0.334%
10,CP(=O)(Nc1ccc2c(c1)OCCO2)Oc1ccccc1 (centres undefined),inactive: 3.95%
11,O=[N+]([O-])c1cc([N+](=O)[O-])c(C(F)(F)F)c([N+](=O)[O-])c1O,inactive: 1.33%
12,Cc1ccccc1NP(C)(=O)Nc1ccccc1C,inactive: -3.23%
13,CP(=O)(Nc1ccc(SC(F)(F)F)cc1)Oc1ccc(F)cc1 (centres undefined),inactive: -13.4%
14,CCOP(C)(=S)SCC(=O)NC(C)(CC)C(=O)O (centres undefined),inactive: 12%
15,Cc1cc(-c2cccc3ccccc23)c(C)cn1.O=[N+]([O-])c1cc([N+](=O)[O-])c(O)c([N+](=O)[O-])c1,inactive: -44%
16,O=[N+]([O-])c1ccc(OP2(=O)COCCO2)cc1 (centres undefined),inactive: -2.92%
17,Cc1c(C(c2ccc3c(c2)OCO3)c2c(C)n(C)n(-c3ccccc3)c2=O)c(=O)n(-c2ccccc2)n1C.O=[N+]([O-])c1cc([N+](=O)[O-])c(O)c([N+](=O)[O-])c1,inactive: 0.694%
18,COc1ccc(OP(C)(=O)Nc2cccc(Br)c2)cc1 (centres undefined),inactive: -3.16%
19,COc1ccc(NP(C)(=O)Oc2ccccc2OC)cc1 (centres undefined),inactive: 10.1%
20,CN(C)CCOC(=O)C(O)(c1ccccc1)C1CCCCC1 (centres undefined),inactive: 0%
